Data on 15 molecules can be found in patent US20160016998A1, “HIGH-AFFINITY MATRIPTASE INHIBITORS” (MERCK PATENT GMBH, priority 2013, published 2016).

The target of the test is T1, matriptase (Homo sapiens, UniProt Q9Y5Y6).
T1 construct: made in house
T1 sequence (Q9Y5Y6 615-855 limits assumed): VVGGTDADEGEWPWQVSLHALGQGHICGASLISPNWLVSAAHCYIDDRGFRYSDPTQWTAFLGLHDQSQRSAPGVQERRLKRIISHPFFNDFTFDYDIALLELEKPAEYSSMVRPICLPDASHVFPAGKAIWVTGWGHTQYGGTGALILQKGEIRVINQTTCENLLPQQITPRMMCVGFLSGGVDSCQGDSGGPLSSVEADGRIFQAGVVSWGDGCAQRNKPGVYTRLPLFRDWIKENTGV
The test is described as follows: Matriptase enzyme inhibition assay with chromogenic substrate Boc-QAR-pNA. The test is classed as biochemical. As to conditions: for ΔBG(x) − ΔBG(SFTI-1[1, 14]): difference in free energy of binding/dissociation, ΔBG = −RTlnKi; for ΔBG(x) − ΔBG(SFTI-1[1, 14]) / Relative Activity: matriptase, pH 7.6 (Table 1); for matriptase affinity / inhibitor potency in words: enzyme inhibition assays, pH 7.6, comparator as worded; for Relative Activity: ratio Ki of compound / Ki of SFTI-1[1,14]. The protocol: Recombinant production, autocatalytic activation and purification of matriptase were conducted as previously described. Bovine trypsin was purchased from Sigma-Aldrich. Active-site titration and determination of Michaelis-Menten constants KM for the chromogenic substrate Boc-QAR-pNA was performed as reported earlier.
All experiments were performed in triplicate. […] Slopes of the initial reaction velocities (steady-state) were calculated and normalized to the data of the uninhibited enzymatic hydrolysis of Boc-QAR-pNA. The determined v/v0 values were plotted against the concentration of the inhibitor.
Errors were calculated through propagation of errors (compare Tischler et al.).[17]

In turn, `CC[C@H](C)[C@@H]1NC(=O)[C@H](CO)NC(=O)[C@H](CCCCN)NC(=O)[C@H]([C@@H](C)O)NC(=O)[C@@H](NC(=O)[C@H](CCCNC(=N)N)NC(=O)CN)CSSC[C@@H](C(=O)N[C@@H](Cc2ccccc2)C(=O)N2CCC[C@H]2C(=O)N[C@@H](CC(=O)O)C(=O)O)NC(=O)[C@H](Cn2cc(CN)nn2)NC(=O)[C@@H]2CCCN2C(=O)[C@@H]2CCCN2C1=O` [Compound 9] yielded a Ki of 0.148 ± 0.019 µM. `CC[C@H](C)[C@@H]1NC(=O)[C@@H]2CCCN2C(=O)[C@@H]2CCCN2C(=O)[C@H](Cn2cc(-c3ccccc3)nn2)NC(=O)[C@H](CO)NC(=O)[C@H](CCCCN)NC(=O)[C@H]([C@@H](C)O)NC(=O)[C@@H](NC(=O)[C@H](CCCNC(=N)N)NC(=O)CN)CSSC[C@@H](C(=O)N[C@@H](Cc2ccccc2)C(=O)N2CCC[C@H]2C(=O)N[C@@H](CC(=O)O)C(=O)O)NC1=O` [Compound 7] displayed a Ki of 3.34 ± 0.414 µM. In turn, `CC[C@H](C)[C@@H]1NC(=O)[C@@H]2CCCN2C(=O)[C@@H]2CCCN2C(=O)[C@H](CCn2cc(C(=O)OC)nn2)NC(=O)[C@H](CO)NC(=O)[C@H](CCCCN)NC(=O)[C@H]([C@@H](C)O)NC(=O)[C@@H](NC(=O)[C@H](CCCNC(=N)N)NC(=O)CN)CSSC[C@@H](C(=O)N[C@@H](Cc2ccccc2)C(=O)N2CCC[C@H]2C(=O)N[C@@H](CC(=O)O)C(=O)O)NC1=O` [Compound 6] showed a Ki of 10.9 ± 1.35 µM. For the molecule `CC[C@H](C)[C@@H]1NC(=O)[C@H](CO)NC(=O)[C@H](CCCCN)NC(=O)[C@H]([C@@H](C)O)NC(=O)[C@@H](NC(=O)[C@H](CCCNC(=N)N)NC(=O)CN)CSSC[C@@H](C(=O)N[C@@H](Cc2ccccc2)C(=O)N2CCC[C@H]2C(=O)N[C@@H](CC(=O)O)C(=O)O)NC(=O)[C@H](CCCCN)NC(=O)[C@@H]2CCCN2C(=O)[C@@H]2CCCN2C1=O` [Compound 17], the inhibition constant (Ki) is 0.232 ± 0.029 µM; the “ΔBG(x) − ΔBG(SFTI-1[1, 14])” value turned out to be 2.7 ± 0.4 kJ/mol; the “matriptase affinity / inhibitor potency in words” value is recorded as “slightly less potent than inhibitor 9”; the “Relative Activity” value worked out at 0.33.

Molecule `CC[C@H](C)[C@@H]1NC(=O)[C@H](CO)NC(=O)[C@H](CCCCN)NC(=O)[C@H]([C@@H](C)O)NC(=O)[C@@H](NC(=O)[C@H](CCCNC(=N)N)NC(=O)CN)CSSC[C@@H](C(=O)N[C@@H](Cc2ccccc2)C(=O)N2CCC[C@H]2C(=O)N[C@@H](CC(=O)O)C(=O)O)NC(=O)[C@H](CCn2cc(CN)nn2)NC(=O)[C@@H]2CCCN2C(=O)[C@@H]2CCCN2C1=O` [Compound 10] gave a Ki of 0.513 ± 0.066 µM. The molecule `CC[C@H](C)[C@@H]1NC(=O)[C@@H]2CCCN2C(=O)[C@@H]2CCCN2C(=O)[C@H](CCn2cc(C(=O)O)nn2)NC(=O)[C@H](CO)NC(=O)[C@H](CCCCN)NC(=O)[C@H]([C@@H](C)O)NC(=O)[C@@H](NC(=O)[C@H](CCCNC(=N)N)NC(=O)CN)CSSC[C@@H](C(=O)N[C@@H](Cc2ccccc2)C(=O)N2CCC[C@H]2C(=O)N[C@@H](CC(=O)O)C(=O)O)NC1=O` [Compound 4] came in with a Ki of 2.38 ± 0.291 µM. As for `CC[C@H](C)[C@@H]1NC(=O)[C@H](CO)NC(=O)[C@H](CCCCN)NC(=O)[C@H]([C@@H](C)O)NC(=O)[C@@H](NC(=O)[C@H](CCCNC(=N)N)NC(=O)CN)CSSC[C@@H](C(=O)N[C@@H](Cc2ccccc2)C(=O)N2CCC[C@H]2C(=O)N[C@@H](CC(=O)O)C(=O)O)NC(=O)[C@H](CCn2cc(C(=O)O)nn2)NC(=O)[C@@H]2CCCN2C(=O)[C@@H]2CCCN2C1=O` [Compound 12], the affinity corresponds to a Ki of 8.1 ± 1.01 µM.

`CC[C@H](C)[C@@H]1NC(=O)[C@@H]2CCCN2C(=O)[C@@H]2CCCN2C(=O)[C@H]([C@@H](C)CC)NC(=O)[C@H](CO)NC(=O)[C@H](CCCCN)NC(=O)[C@H]([C@@H](C)O)NC(=O)[C@@H](NC(=O)[C@H](CCCNC(=N)N)NC(=O)CN)CSSC[C@@H](C(=O)N[C@H](C(=O)N2CCC[C@H]2C(=O)N[C@@H](CC(=O)O)C(=O)O)C(C)C)NC1=O` [Compound 20] displayed a Ki of 0.58 ± 0.072 µM. `CC[C@H](C)[C@@H]1NC(=O)[C@@H]2CCCN2C(=O)[C@@H]2CCCN2C(=O)[C@H]([C@@H](C)CC)NC(=O)[C@H](CO)NC(=O)[C@H](CCCCN)NC(=O)[C@H]([C@@H](C)O)NC(=O)[C@@H](NC(=O)[C@H](CCCNC(=N)N)NC(=O)CN)CSSC[C@@H](C(=O)N[C@H](C(=O)N2CCC[C@H]2C(=O)N[C@@H](CC(=O)O)C(=O)O)[C@@H](C)CC)NC1=O` [Compound 21]: the Ki is 0.319 ± 0.04 µM; the “ΔBG(x) − ΔBG(SFTI-1[1, 14])” value was 2.0 ± 0.4 kJ/mol; the “matriptase affinity / inhibitor potency in words” value is “beneficial effect”; the “Relative Activity” value was found to be 0.45. Turning to `CC[C@H](C)[C@@H]1NC(=O)[C@H](CO)NC(=O)[C@H](CCCCN)NC(=O)[C@H]([C@@H](C)O)NC(=O)[C@@H](NC(=O)[C@H](CCCNC(=N)N)NC(=O)CN)CSSC[C@@H](C(=O)N[C@@H](Cc2ccccc2)C(=O)N2CCC[C@H]2C(=O)N[C@@H](CC(=O)O)C(=O)O)NC(=O)[C@H](Cn2cc(-c3ccccc3)nn2)NC(=O)[C@@H]2CCCN2C(=O)[C@@H]2CCCN2C1=O` [Compound 15], the affinity corresponds to a Ki of 0.556 ± 0.07 µM. `CC[C@H](C)[C@@H]1NC(=O)[C@@H]2CCCN2C(=O)[C@@H]2CCCN2C(=O)[C@H](CCn2cc(CN)nn2)NC(=O)[C@H](CO)NC(=O)[C@H](CCCCN)NC(=O)[C@H]([C@@H](C)O)NC(=O)[C@@H](NC(=O)[C@H](CCCNC(=N)N)NC(=O)CN)CSSC[C@@H](C(=O)N[C@@H](Cc2ccccc2)C(=O)N2CCC[C@H]2C(=O)N[C@@H](CC(=O)O)C(=O)O)NC1=O` [Compound 2] had a Ki of 3.82 ± 0.494 µM. The molecule `CC[C@H](C)[C@@H]1NC(=O)[C@H](CO)NC(=O)[C@H](CCCCN)NC(=O)[C@H]([C@@H](C)O)NC(=O)[C@@H](NC(=O)[C@H](CCCNC(=N)N)NC(=O)CN)CSSC[C@@H](C(=O)N[C@@H](Cc2ccccc2)C(=O)N2CCC[C@H]2C(=O)N[C@@H](CC(=O)O)C(=O)O)NC(=O)[C@H](CCn2cc(-c3ccccc3)nn2)NC(=O)[C@@H]2CCCN2C(=O)[C@@H]2CCCN2C1=O` [Compound 16] yielded an inhibition constant Ki of 4.75 ± 0.585 µM. On the same count and under the same terms, for `CC[C@H](C)[C@@H]1NC(=O)[C@@H]2CCCN2C(=O)[C@@H]2CCCN2C(=O)[C@H](Cn2cc(C(=O)O)nn2)NC(=O)[C@H](CO)NC(=O)[C@H](CCCCN)NC(=O)[C@H]([C@@H](C)O)NC(=O)[C@@H](NC(=O)[C@H](CCCNC(=N)N)NC(=O)CN)CSSC[C@@H](C(=O)N[C@@H](Cc2ccccc2)C(=O)N2CCC[C@H]2C(=O)N[C@@H](CC(=O)O)C(=O)O)NC1=O` [Compound 3] the value was 13.9 ± 1.71 µM. Turning to `CC[C@H](C)[C@@H]1NC(=O)[C@@H]2CCCN2C(=O)[C@@H]2CCCN2C(=O)[C@H](Cn2cc(C(=O)OC)nn2)NC(=O)[C@H](CO)NC(=O)[C@H](CCCCN)NC(=O)[C@H]([C@@H](C)O)NC(=O)[C@@H](NC(=O)[C@H](CCCNC(=N)N)NC(=O)CN)CSSC[C@@H](C(=O)N[C@@H](Cc2ccccc2)C(=O)N2CCC[C@H]2C(=O)N[C@@H](CC(=O)O)C(=O)O)NC1=O` [Compound 5], affinity was put at a Ki of 1.63 ± 0.2 µM. The molecule `CC[C@H](C)[C@@H]1NC(=O)[C@@H]2CCCN2C(=O)[C@@H]2CCCN2C(=O)[C@H](CCn2cc(-c3ccccc3)nn2)NC(=O)[C@H](CO)NC(=O)[C@H](CCCCN)NC(=O)[C@H]([C@@H](C)O)NC(=O)[C@@H](NC(=O)[C@H](CCCNC(=N)N)NC(=O)CN)CSSC[C@@H](C(=O)N[C@@H](Cc2ccccc2)C(=O)N2CCC[C@H]2C(=O)N[C@@H](CC(=O)O)C(=O)O)NC1=O` [Compound 8] displayed a Ki of 1.25 ± 0.155 µM.

As a reminder, the Ki is a dissociation constant, usually derived from enzyme kinetics or from competition with a known ligand.
